Tests used:
MMP2 = target: T1, MMP2 (Homo sapiens, UniProt P08253); assay: MMP2 fluorogenic peptide biochemical assay
T1 construct: purchased R&D Systems 902-MP
T1 sequence (P08253 110-660): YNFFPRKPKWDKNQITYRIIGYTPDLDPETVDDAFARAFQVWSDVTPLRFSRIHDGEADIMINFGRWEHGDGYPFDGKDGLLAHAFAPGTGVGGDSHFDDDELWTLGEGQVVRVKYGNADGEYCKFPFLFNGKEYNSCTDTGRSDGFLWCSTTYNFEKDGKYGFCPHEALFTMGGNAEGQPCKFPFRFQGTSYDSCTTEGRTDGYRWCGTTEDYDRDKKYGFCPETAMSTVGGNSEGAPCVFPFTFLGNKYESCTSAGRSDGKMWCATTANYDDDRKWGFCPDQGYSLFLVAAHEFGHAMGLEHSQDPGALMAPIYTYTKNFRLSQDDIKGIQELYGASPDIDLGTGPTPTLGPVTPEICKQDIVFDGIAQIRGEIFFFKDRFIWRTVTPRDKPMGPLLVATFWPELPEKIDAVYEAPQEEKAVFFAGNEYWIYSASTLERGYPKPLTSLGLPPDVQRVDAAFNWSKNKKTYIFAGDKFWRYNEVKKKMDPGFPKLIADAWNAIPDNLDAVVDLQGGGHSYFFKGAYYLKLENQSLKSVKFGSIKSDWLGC
From the text: Source of enzymes for biochemical assays: Except for ADAM17 and MT1-MMP, all recombinant human MMPs and ADAMs were obtained from R&D Systems (Minneapolis, Minn.). Their catalog numbers are as following: MMP1 (901-MP), MMP2 (902-MP), MMP3 (513-MP), MMP7 (907-MP), MMP8 (908-MP), MMP9 (911-MP), MMP10 (910-MP), MMP12 (919-MP), MMP13 (511-MM), ADAM9 (939-AD), and ADAM10 (936-AD). MT1-MMP was obtained from US Biological (Swampscott, Mass.) with a catalog number of M2429. Porcine ADAM17 was purified in house from porcine spleen.
Substrates for biochemical assays: Fluorogenic Peptide substrate, (7-methoxycoumarin-4-yl)acetyl-Pro-Leu-Gly-Leu-(3-[2,4-dinitrophenyl]-L-2,3-diaminopropionyl)-Ala-Arg-NH2 (SEQ ID NO: 46), was obtained from R&D Systems (Minneapolis, Minn.) with a catalog number of ES001. It was used as substrate for MMP1, MMP2, MMP7, MMP8, MMP9, MMP12, MMP13, and MT1-MMP. Fluorogenic Peptide substrate, (7-methoxycoumarin-4-yl)acetyl-Arg-Pro-Lys-Pro-Val-Glu-Nva-Trp-Arg-Lys(2,4-dinitrophenyl)-NH2 (SEQ ID NO: 47), was obtained from R&D Systems with a catalog number of ES002. It was used as substrate for MMP3 and MMP10. […]
In general, 5 mM compound stock was prepared in DMSO. […] The plate was read on a plate reader with excitation of 320 nm and emission of 405 nm. Percentage of inhibition was calculated for each concentration and IC50 value was generated from curve fitting. […]

[1] = tested on: Her-2 cleavage in BT-474 cells; assay: Western blot of Her-2 ECD (105 kDa) in culture supernatants; format: cell-based, human; conditions: suboptimal doses
BT474 cells = assay: Cell proliferation assay (cell counting, BrdU incorporation); format: cell-based, human
Protocol: (§1) Proliferation assays were routinely performed with two protocols: cell counting and BrdU incorporation assay. For cell counting, cells (1×10^5) were seeded in each well of 12 well plates and cultured overnight. Then, cells were treated for 6 days with drugs and compounds as indicated in individual experiments. Culture media were replaced with fresh media containing the same concentrations of drugs and compounds after the first 3 days of treatment. Viable cells were counted with hemacytometers immediately after trypan blue staining.
(§2) The BrdU incorporation assay was performed using a colorimetric Cell Proliferation ELISA kit per manufacturer's instruction (#1647229, Roche Molecular Biochemicals), measuring DNA synthesis in proliferating cells. Briefly, cells (5−10×10^3) were seeded in each well of 96 well plates and cultured overnight. […] Finally, 100 μl/well of substrate solution was added and the results were obtained using a microplate reader (Spectra Max PLUS, Molecular Devices) during color development. Multiple readings at various time points were obtained and results in the linear range of the assay were obtained. […]
After varying periods of cell culture (2-6 days), the cell cultures were harvested and cell growth was assessed by cell count and BRdU incorporation using standard protocols.

[2] = tested on: AKT and ERK phosphorylation in MCF7 cells; assay: Western blot of phospho-ERK and phospho-AKT; format: cell-based, human; conditions: Her-2 non-overexpressing MCF7 cells
MCF7 cells = assay: Cell proliferation assay (cell counting, BrdU incorporation); format: cell-based, human; conditions: single agent or combination of Herceptin and active sheddase inhibitor
Protocol: as §1
as §2, with “overnight. The next day, culture media were replaced with fresh media containing drugs and compounds as indicated for individual experiments.” for “overnight.”

Her-2 cleavage = conditions: literature reports; cited from earlier work
[3] = tested on: AKT and ERK phosphorylation in BT474 cells; assay: Western blot of phospho-ERK and phospho-AKT; format: cell-based, human; conditions: sheddase inhibitor less than 5 μM alone or 0.2 μg/ml Herceptin alone
Protocol: In experiments to determine the effects of MPI treatment on cell signaling, BT474 cells were plated at 1×10^5 cells/mL in 2 mL of media (RPMI+10% FCS+10 μg/mL insulin) in 12-well plates. […] After 5 days, the cells were harvested, lysed in 200 μL ice-cold lysis buffer containing 10 mM Tris, pH 7.2, 150 mM NaCl, 1% Triton X-100, 1% deoxycholic acid, 0.1% SDS, 50 μg/mL leupeptin, 50 μg/mL aprotinin, 1 mM sodium vanadate, 50 mM sodium fluoride, 1 mM PMSF. After 10 minutes on ice, the samples were microfuged at 13,000 rpm for 10 minutes at 4° C. and the supernatants collected. For analysis, 15 μL of 2× Laemmli sample buffer (BioRad, cat#161-0737) was added to 15 μL of extract, samples boiled for 5 minutes and loaded onto 12-well 12% Tris-Glycine gels (Novex, cat# EC60052). Gels were run in 1× Tris-Glycine-SDS buffer (Gibco BRL) using Novex minigel apparatus for approximately 1.5 hours. Following electrophoresis, proteins were transferred onto PVDF membrane (NEN, cat#NEF1000) in 1× Tris-Glycine buffer (Biorad, cat#161-0734) containing 20% MeOH for 2-3 hours using BioRad miniblot transfer system. After transfer, membranes were blocked in PBS+5% milk+0.1% Tween-20 for 1 h at RT. […]
Phosphorylation of AKT and the MAP kinase ERK were monitored by western blot analysis using phospho-specific antibodies.

| IC50 (MMP2) [nM] | Compound | prevention of Her-2 cleavage in vitro [1] | effect on BT474 cell growth (BT474 cells; 0.2 μg/ml) | maximal growth inhibition (BT474 cells; BT474 cells, concentrations above 1 μg/ml) | AKT and MAP kinase pathways [2] | growth of MCF7 cells (MCF7 cells) | cleavage of Her-2 (p185) to p95 and ECD (Her-2 cleavage) | AKT or ERK phosphorylation, single agent [3] |
| --- | --- | --- | --- | --- | --- | --- | --- | --- |
| 0.65 | CN1CC2(CC2)C[C@H](C(=O)NO)[C@H]1C(=O)N1CCN(c2ccc(C(F)(F)F)cn2)CC1 [Compound 6] | – | – | – | – | – | – | – |
| – | Herceptin: anti-Her-2 monoclonal antibody; humanized antibody that binds Her-2 directly [reference compound] | does not occur | without significant effect | approximately 50% | not impacted | not significantly impacted | inhibit enzymatic cleavage | did not demonstrate a detectable effect |
